Antibody variant affinities, Ab-91 heavy chain, assay 2

Source: Engelhart et al. 2022 (doi:10.1038/s41597-022-01779-4), MIT Lincoln Laboratory and A-Alpha Bio; data file from the FLAb repository.

The target is the same throughout: PDVDLGDISGINAS, from the HR2 region of SARS-CoV-2 spike.

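The starting antibody came from a phage panning campaign against this peptide. Library AAYL51 holds single substitutions and randomly drawn double and triple substitutions in the CDRs. The assay is AlphaSeq: two haploid yeast populations carry antibody and antigen on their surface. The frequency of each diploid, read from paired DNA barcodes, reflects how well the two displayed proteins bind. Scores were corrected for input abundance and mapped to Kd with protein pairs of known affinity run in the same pool. Each pool was mated in three replicate cultures.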

Ab-91 is the parent antibody, in scFv form: VL, then a (GGGGS)3 linker, then VH. The light chain is unchanged in all variants.
VL: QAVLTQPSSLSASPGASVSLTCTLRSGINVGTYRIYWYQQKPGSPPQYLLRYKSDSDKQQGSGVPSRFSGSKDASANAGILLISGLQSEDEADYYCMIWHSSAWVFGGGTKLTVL
VH: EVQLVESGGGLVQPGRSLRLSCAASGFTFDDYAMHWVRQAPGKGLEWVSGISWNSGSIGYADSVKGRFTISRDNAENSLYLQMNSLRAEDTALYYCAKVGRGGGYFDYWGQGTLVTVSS

Changes read parent residue, position, new residue, counted from the first residue of the VH shown.
All variants listed here change Y108 of the VH, counted from its first residue.
Values are apparent Kd, the geometric mean of the replicates that gave a signal; lower means stronger binding.
A pair that was not seen in any replicate is written "no signal"; this usually means weak binding, but a binder can also be missed.
Nonspecific signal, from three strains lacking the peptide, appeared in 21% of pairings of library AAYL51, centred on 34 µM (5% of these signals below 1.8 µM); values are not corrected for it. For each scFv, signals with the empty controls are counted beside the result.
In this assay the parent's reference entry averaged 72 nM; its copy inside this library read 7.5 nM.

- Y105I/Y108G: 35 µM (2 of 3 replicates; controls 3 of 9)
- D107S/Y108N: 18 nM (3 of 3 replicates; controls 3 of 9)
- A33Q/A61L/Y108W: 1.6 µM (1 of 3 replicates; controls 2 of 9)
- S63T/G103V/Y108G: 7.2 µM (2 of 3 replicates; controls 6 of 9)
- G102N/Y108I: 630 nM (2 of 3 replicates; controls 0 of 9)
- G59Q/D62G/Y108L: 26 µM (3 of 3 replicates; controls 4 of 9)
- G26Y/G50M/Y108E: no signal (0 of 3 replicates; controls 0 of 9)
- Y32A/D107R/Y108M: 990 nM (3 of 3 replicates; controls 1 of 9)
- S55V/I58H/Y108W: no signal (0 of 3 replicates; controls 0 of 9)
- S55L/G102I/Y108K: no signal (0 of 3 replicates; controls 1 of 9)
- M34G/H35R/Y108V: 46 µM (1 of 3 replicates; controls 3 of 9)
- V99G/Y108T: 4.3 µM (3 of 3 replicates; controls 1 of 9)
- I58H/K65F/Y108D: no signal (0 of 3 replicates; controls 2 of 9)
- G102T/Y108G: 43 µM (3 of 3 replicates; controls 6 of 9)
- F27L/N54P/Y108P: no signal (0 of 3 replicates; controls 3 of 9)
- Y60R/G100I/Y108H: 58 µM (1 of 3 replicates; controls 3 of 9)
- F29P/G56D/Y108T: 190 nM (3 of 3 replicates; controls 6 of 9)
- F29K/G59M/Y108A: 27 µM (1 of 3 replicates; controls 1 of 9)
- S52E/V64Q/Y108F: no signal (0 of 3 replicates; controls 1 of 9)
- D30R/A61V/Y108I: 75 nM (3 of 3 replicates; controls 2 of 9)
- N54F/Y60A/Y108K: no signal (0 of 3 replicates; controls 0 of 9)
- G100A/G103R/Y108G: 30 nM (3 of 3 replicates; controls 5 of 9)
- S57N/Y60D/Y108V: 46 µM (1 of 3 replicates; controls 2 of 9)
- D31M/G102E/Y108I: no signal (0 of 3 replicates; controls 2 of 9)
- S52Q/S57W/Y108S: 60 µM (2 of 3 replicates; controls 5 of 9)
- G26Q/A61L/Y108P: no signal (0 of 3 replicates; controls 0 of 9)
- A33T/S52A/Y108E: 1.2 µM (1 of 3 replicates; controls 0 of 9)
- D30K/G100T/Y108W: 630 µM (2 of 3 replicates; controls 4 of 9)
- G56H/F106R/Y108G: 98 µM (3 of 3 replicates; controls 4 of 9)
- V64G/Y108K: 200 nM (3 of 3 replicates; controls 3 of 9)

Repeated from above, the 5 best binders with a signal in all replicates:

- D107S/Y108N = 18 nM (3 of 3 replicates; controls 3 of 9)
- G100A/G103R/Y108G = 30 nM (3 of 3 replicates; controls 5 of 9)
- D30R/A61V/Y108I = 75 nM (3 of 3 replicates; controls 2 of 9)
- F29P/G56D/Y108T = 190 nM (3 of 3 replicates; controls 6 of 9)
- V64G/Y108K = 200 nM (3 of 3 replicates; controls 3 of 9)